From patent publication US20250042891A1
pIC50: −log10 of the molar value. Read-outs that look alike come from different tables or passages of the source.

By UniProt entry, the sequences of proteins in these tests, tags left out. Residues count along the entry.
UniProt Q86W56, 389-976 limits assumed: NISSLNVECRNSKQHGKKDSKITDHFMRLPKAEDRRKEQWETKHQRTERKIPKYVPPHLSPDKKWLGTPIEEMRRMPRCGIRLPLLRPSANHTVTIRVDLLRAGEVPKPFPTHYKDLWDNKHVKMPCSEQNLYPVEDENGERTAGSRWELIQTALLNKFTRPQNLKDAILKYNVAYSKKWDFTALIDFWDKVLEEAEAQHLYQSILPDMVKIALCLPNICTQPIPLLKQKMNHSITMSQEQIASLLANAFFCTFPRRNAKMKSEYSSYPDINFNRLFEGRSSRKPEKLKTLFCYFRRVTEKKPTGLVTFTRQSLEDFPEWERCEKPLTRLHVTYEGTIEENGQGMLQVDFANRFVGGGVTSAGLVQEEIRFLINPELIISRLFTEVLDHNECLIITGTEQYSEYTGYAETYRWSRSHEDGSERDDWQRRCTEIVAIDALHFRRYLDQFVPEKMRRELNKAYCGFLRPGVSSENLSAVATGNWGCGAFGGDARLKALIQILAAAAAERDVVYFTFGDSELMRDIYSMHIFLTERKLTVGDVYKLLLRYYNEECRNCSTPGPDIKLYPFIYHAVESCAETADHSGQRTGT

Tests used:
NCI-H460 = test: CTG assay for proliferation inhibition of cell lines; conditions: read-out: IC50 (μM) (NCI-H460); NCI-H460, 7 days, CellTiter Glo
HCC1428 = test: as above; conditions: read-out: IC50 (μM) (HCC1428); HCC1428, 7 days, CellTiter Glo
HCC1395 = test: as above; conditions: read-out: IC50 (μM) (HCC1395); HCC1395, 7 days, CellTiter Glo
PARG (389-976) = PARG (389-976) (Homo sapiens (Human), UniProt Q86W56); test: PARG enzyme inhibition assay (TR-FRET); conditions: read-out: IC50 (PARG enzyme)
[1] = class symbol, Bio PARylated His-TEV-PARP1 substrate, TR-FRET

| SMILES | IC50 (NCI-H460) [µM] | IC50 (HCC1428) [µM] | IC50 (HCC1395) [µM] | pIC50 (PARG (389-976); [1]) | pIC50 (PARG (389-976); numeric value in parentheses under the class symbol) |
| --- | --- | --- | --- | --- | --- |
| CN1CC(S(=O)(=O)N2CC=C(c3cc(S(=O)(=O)NC4(C#N)CC4)cc4c(-c5nnc(C(F)F)s5)nn(C)c34)CC2)C1 | 0.891 | 2.09 | 1.46 |  |  |
| CC(C)S(=O)(=O)N1CC=C(c2cc(S(=O)(=O)NC3(C#N)CC3)cc3c2cnn3-c2nnc(C(F)F)s2)CC1 | 0.312 | 0.538 | 0.306 | 8.00 to 9.00 | 8.93 |
| CC(C)S(=O)(=O)N1CC=C(c2cc(S(=O)(=O)NC3(C#N)CC3)cc3c2ncn3-c2nnc(C(F)(F)F)s2)CC1 |  |  |  | 8.00 to 9.00 |  |
| CC(C)S(=O)(=O)N1CC=C(c2cc(S(=O)(=O)NC3(C#N)CC3)nc3c(-c4nnc(C(F)(F)F)s4)nn(C)c23)CC1 |  |  |  | 6.00 to 7.00 |  |
| CC(C)S(=O)(=O)N1CC=C(c2cc(S(=O)(=O)NC3(C#N)CC3)cc3c(-c4nnc(C(F)F)s4)cn(C)c23)CC1 |  |  |  | 8.00 to 9.00 |  |
| CC(C)S(=O)(=O)N1CC=C(c2cc(S(=O)(=O)NC3(C#N)CC3)cc3c(-c4nc(C(F)(F)F)no4)nn(C)c23)CC1 |  | 0.0833 | 0.196 | > 9.00 |  |

Second part, the compound after the results:

| IC50 (NCI-H460) [µM] | IC50 (HCC1428) [µM] | IC50 (HCC1395) [µM] | pIC50 (PARG (389-976); [1]) | pIC50 (PARG (389-976); numeric value in parentheses under the class symbol) | SMILES |
| --- | --- | --- | --- | --- | --- |
| 0.131 | 0.185 | 0.156 |  |  | CC(C)S(=O)(=O)N1CCC(c2cc(S(=O)(=O)NC3(C#N)CC3)cc3c(-c4nnc(C(F)(F)F)s4)nn(C)c23)=C(F)C1 |
|  |  | 0.0621 |  |  | [2H]C([2H])([2H])n1nc(-c2nnc(C(F)F)s2)c2cc(S(=O)(=O)NC3(C#N)CC3)cc(C3=CCN(S(=O)(=O)C(C)C)CC3)c21 |
| 0.134 | 0.144 | 0.162 |  |  | CC(C)S(=O)(=O)N1CC=C(c2cc(S(=O)(=O)NC3(C#N)CC3)cc3c(-c4nnc(C(F)F)s4)nn(CC4CC4)c23)CC1 |
|  | 0.126 | 0.0587 |  |  | COCC1=C(c2cc(S(=O)(=O)NC3(C#N)CC3)cc3c(-c4nnc(C(F)(F)F)s4)nn(C)c23)CCN(S(=O)(=O)C(C)C)C1 |
